# Data published in patent US20230144528A1, “CDK Inhibitors And Their Use As Pharmaceuticals” (Prelude Therapeutics Incorporated, priority 2021, published 2023).
# Tests used:
# [1] = physchem; conditions: 0.1 M HCl aqueous solution, pH 1.08, simulated gastric fluid
# [2] = physchem; conditions: Fasted State Simulated Intestinal Fluid (FaSSIF)
structure (smiles),measurement,setting,value
"Cc1cnc(NC(=O)[C@H]2CCC[C@@H](NC(=O)CC#N)C2)cc1-c1cc(F)c2ncn(C(C)C)c2c1 [Example 80, (1S,3R)-3-(2-cyanoacetamido)-N-(4-(4-fluoro-1-isopropyl-1H-benzo[d]imidazol-6-yl)-5-methylpyridin-2-yl)cyclohexane-1-carboxamide]",solubility,[1],> 1000 µg/mL
same,solubility,[2],~220 µg/mL
